Laboratory results reported in ChEMBL document CHEMBL1152545, “Fluorinated indazoles as novel selective inhibitors of nitric oxide synthase (NOS): synthesis and biological evaluation” (Bioorg Med Chem, 2009).

Sequences of proteins named here, by UniProt entry; tags and fusion partners are left off.
UniProt P29475, whole entry, looked up: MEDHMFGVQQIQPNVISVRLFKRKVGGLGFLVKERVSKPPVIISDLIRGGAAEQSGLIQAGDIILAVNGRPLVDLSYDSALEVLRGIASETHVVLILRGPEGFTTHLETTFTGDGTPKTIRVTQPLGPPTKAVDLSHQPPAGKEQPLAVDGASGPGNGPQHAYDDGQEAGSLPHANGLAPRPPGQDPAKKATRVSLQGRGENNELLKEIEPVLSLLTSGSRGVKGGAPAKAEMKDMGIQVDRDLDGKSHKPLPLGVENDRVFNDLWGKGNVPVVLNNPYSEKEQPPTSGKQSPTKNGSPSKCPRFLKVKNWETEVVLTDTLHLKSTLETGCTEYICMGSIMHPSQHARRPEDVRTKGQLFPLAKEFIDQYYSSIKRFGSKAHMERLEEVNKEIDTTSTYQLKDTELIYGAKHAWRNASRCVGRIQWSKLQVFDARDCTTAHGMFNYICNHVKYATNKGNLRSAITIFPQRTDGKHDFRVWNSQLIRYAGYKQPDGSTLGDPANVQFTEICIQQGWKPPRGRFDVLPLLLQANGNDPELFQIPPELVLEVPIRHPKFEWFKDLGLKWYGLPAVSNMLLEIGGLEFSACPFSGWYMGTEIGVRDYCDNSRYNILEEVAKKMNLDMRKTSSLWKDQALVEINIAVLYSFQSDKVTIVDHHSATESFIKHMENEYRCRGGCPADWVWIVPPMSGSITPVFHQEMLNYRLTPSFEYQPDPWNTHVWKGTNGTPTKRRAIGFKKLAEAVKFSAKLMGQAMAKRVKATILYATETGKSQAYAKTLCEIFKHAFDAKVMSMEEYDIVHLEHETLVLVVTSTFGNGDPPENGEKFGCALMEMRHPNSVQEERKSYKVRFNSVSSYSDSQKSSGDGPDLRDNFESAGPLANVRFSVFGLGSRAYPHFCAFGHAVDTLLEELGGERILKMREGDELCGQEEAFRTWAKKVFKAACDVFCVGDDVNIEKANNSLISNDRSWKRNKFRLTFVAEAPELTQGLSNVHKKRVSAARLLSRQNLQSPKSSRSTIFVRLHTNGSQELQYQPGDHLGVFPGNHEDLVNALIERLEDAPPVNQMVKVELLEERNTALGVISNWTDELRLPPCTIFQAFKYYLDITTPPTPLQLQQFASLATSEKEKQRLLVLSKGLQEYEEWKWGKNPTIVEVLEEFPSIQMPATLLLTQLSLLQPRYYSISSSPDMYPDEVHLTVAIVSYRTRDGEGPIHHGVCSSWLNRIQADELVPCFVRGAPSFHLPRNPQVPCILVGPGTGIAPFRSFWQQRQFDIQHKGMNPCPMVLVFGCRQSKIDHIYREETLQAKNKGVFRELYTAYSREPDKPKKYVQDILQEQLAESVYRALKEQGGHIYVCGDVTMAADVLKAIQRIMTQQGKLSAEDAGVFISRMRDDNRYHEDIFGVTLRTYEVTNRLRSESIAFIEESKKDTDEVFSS
UniProt P35228, whole entry, looked up: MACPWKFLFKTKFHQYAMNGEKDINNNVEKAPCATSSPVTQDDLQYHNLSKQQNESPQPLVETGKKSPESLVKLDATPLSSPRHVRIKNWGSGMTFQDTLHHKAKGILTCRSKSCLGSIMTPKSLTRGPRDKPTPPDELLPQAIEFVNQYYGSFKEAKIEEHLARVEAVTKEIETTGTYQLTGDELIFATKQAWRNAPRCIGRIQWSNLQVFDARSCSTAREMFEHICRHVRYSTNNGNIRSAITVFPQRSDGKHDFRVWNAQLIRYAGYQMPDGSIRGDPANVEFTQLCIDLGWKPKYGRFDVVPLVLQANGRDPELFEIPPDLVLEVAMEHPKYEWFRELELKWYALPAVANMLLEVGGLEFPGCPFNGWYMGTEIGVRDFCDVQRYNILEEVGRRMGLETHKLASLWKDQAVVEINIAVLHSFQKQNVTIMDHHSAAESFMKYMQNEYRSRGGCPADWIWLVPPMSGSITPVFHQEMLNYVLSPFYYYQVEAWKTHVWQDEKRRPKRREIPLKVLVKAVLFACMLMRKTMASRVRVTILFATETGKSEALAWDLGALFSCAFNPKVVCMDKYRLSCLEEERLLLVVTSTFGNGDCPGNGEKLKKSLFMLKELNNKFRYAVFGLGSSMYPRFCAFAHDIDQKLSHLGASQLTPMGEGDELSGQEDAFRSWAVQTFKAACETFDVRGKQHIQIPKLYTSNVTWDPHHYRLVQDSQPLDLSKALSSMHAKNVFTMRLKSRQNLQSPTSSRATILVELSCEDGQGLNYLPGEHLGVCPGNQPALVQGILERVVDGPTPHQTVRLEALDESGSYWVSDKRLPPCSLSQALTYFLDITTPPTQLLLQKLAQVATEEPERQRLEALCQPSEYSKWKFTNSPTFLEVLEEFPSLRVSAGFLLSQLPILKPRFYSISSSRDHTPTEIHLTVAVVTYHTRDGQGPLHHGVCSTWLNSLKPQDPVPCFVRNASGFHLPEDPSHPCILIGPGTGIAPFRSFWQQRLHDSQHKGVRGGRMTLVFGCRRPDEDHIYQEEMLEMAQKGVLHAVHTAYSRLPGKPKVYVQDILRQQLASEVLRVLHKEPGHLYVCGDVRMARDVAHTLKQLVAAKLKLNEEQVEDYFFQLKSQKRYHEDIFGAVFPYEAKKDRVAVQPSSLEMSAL

How the values were obtained:
Nitric oxide synthase 1 = Nitric oxide synthase 1 (Homo sapiens, UniProt P29475)
[1] = molecular target: Nitric oxide synthase, inducible (Homo sapiens, UniProt P35228); test: Inhibition of NOS2

O=[N+]([O-])c1cccc2cn([N+](=O)[O-])nc12
IC50 (Nitric oxide synthase 1): 0.62 µM | IC50 [1]: 3.2 µM
